Experimental data taken from paper PMC9865085, “Expression and Characterisation of the First Snail-Derived UDP-Gal: Glycoprotein-N-acetylgalactosamine β-1,3-Galactosyltransferase (T-Synthase) from Biomphalaria glabrata” (Molecules, 2023).

Biological target: T1, T-synthase (UDP-Gal: glycoprotein-N-acetylgalactosamine β-1,3-galactosyltransferase) from Biomphalaria glabrata (Biomphalaria glabrata, UniProt A0A2C9JXL4)
T1 construct: full-length 388 aa type II transmembrane protein, C-terminal His-tag, codon-optimised synthetic gene, expressed in Sf9 cells; lysate or captured on anti-His magnetic beads
T1 sequence (A0A2C9JXL4 1-388): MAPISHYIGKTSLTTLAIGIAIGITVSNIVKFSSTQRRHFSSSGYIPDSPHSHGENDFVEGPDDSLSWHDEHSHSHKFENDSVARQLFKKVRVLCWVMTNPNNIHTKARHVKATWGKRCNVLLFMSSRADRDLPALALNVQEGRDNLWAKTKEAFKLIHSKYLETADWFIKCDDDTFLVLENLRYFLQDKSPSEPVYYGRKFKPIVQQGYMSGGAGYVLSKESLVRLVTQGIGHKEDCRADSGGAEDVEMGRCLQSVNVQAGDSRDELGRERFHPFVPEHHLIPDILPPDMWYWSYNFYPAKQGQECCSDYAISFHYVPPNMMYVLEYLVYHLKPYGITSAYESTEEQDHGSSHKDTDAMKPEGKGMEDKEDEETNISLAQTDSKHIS
Test: galactosyl transfer to pNP-α-GalNAc, HPLC
Assay type: biochemical
Conditions: 5 nmol added to 20 μL assay; 200 μM UDP-Gal, 1 mM pNP-α-GalNAc, 20 mM MnCl2, 2 mM ATP, 50 mM MES pH 6.5, 37 °C, 2 h; bead-bound enzyme or lysate not stated for this test

% inhibition at 5 nmol: ~ 50%
SMILES: O=c1ccn([C@@H]2O[C@H](COP(=O)(O)OP(=O)(O)O)[C@@H](O)[C@H]2O)c(=O)[nH]1 [UDP]
